Data: ChEMBL document CHEMBL5506019 (J Med Chem, 2024)

Protein sequences, listed by entry. Tags and fused reporters are not part of them. Lines headed by an entry give the natural chain unless they say otherwise; changes in a name come on top.
UniProt P28335: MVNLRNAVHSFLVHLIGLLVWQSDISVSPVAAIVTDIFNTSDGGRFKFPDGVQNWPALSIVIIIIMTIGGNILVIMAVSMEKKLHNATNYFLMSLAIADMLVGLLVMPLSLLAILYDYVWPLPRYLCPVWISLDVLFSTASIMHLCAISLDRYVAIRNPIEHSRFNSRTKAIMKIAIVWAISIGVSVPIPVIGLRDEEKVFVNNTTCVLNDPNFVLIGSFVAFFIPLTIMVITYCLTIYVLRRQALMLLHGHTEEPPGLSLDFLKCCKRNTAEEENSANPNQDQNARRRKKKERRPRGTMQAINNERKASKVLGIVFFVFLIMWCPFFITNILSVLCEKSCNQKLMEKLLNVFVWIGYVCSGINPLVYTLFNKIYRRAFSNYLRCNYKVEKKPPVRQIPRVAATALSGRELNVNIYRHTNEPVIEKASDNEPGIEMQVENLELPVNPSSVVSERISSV

Molecular target: 5-hydroxytryptamine receptor 2C (Homo sapiens) (UniProt P28335)
Assay: Agonist activity at human 5-HT2CR expressed in HEK293 cells upto 50 uM incubated upto 90 sec by Fluo-4 AM dye based Ca2+ imaging assay
Format: functional, cell-based

Row | SMILES | Activity
1 | COc1cc(C(F)(F)F)ccc1C1CCCNC1 (configuration not stated) | inactive
2 | COc1cc(C2CCCNC2)c(OC)cc1C (configuration not stated) | inactive
3 | COc1cc(C2CCCNC2)c(OC)cc1C#N (configuration not stated) | inactive
4 | COc1cc(C(F)(F)F)c(OC)cc1[C@@H]1CCCNC1 | inactive
5 | CCOc1cc(C2CCCNC2)c(OC)cc1C(F)(F)F (configuration not stated) | inactive
6 | COc1cc(C2CCCNC2)c(OC)cc1Cl (configuration not stated) | inactive
7 | CCCCc1cc(OC)c(C2CCCNC2)cc1OC (configuration not stated) | inactive
8 | CCOc1cc(C(F)(F)F)c(OC)cc1C1CCCNC1 (configuration not stated) | inactive
9 | COc1cc(C2CCCNC2)c(OC)cc1I (configuration not stated) | inactive
10 | COc1cc(C(F)(F)F)c(OC)cc1[C@H]1CCCN(C)C1 | inactive
11 | COc1cc([C@@H]2CCCNC2)c(OC)cc1Br | inactive
12 | COc1cc(C2CCCNC2)c(OC)cc1SC(C)C (configuration not stated) | inactive

Active and inactive are the calls of the source. The calls are words filed in the database; no cut-off is given here.
